# Reference: PubChem BioAssay AID1416 (The Scripps Research Institute Molecular Screening Center, 2008)
# Amino acid sequences for entries named in this document (tags omitted).
# UniProt Q9NZJ5, whole entry: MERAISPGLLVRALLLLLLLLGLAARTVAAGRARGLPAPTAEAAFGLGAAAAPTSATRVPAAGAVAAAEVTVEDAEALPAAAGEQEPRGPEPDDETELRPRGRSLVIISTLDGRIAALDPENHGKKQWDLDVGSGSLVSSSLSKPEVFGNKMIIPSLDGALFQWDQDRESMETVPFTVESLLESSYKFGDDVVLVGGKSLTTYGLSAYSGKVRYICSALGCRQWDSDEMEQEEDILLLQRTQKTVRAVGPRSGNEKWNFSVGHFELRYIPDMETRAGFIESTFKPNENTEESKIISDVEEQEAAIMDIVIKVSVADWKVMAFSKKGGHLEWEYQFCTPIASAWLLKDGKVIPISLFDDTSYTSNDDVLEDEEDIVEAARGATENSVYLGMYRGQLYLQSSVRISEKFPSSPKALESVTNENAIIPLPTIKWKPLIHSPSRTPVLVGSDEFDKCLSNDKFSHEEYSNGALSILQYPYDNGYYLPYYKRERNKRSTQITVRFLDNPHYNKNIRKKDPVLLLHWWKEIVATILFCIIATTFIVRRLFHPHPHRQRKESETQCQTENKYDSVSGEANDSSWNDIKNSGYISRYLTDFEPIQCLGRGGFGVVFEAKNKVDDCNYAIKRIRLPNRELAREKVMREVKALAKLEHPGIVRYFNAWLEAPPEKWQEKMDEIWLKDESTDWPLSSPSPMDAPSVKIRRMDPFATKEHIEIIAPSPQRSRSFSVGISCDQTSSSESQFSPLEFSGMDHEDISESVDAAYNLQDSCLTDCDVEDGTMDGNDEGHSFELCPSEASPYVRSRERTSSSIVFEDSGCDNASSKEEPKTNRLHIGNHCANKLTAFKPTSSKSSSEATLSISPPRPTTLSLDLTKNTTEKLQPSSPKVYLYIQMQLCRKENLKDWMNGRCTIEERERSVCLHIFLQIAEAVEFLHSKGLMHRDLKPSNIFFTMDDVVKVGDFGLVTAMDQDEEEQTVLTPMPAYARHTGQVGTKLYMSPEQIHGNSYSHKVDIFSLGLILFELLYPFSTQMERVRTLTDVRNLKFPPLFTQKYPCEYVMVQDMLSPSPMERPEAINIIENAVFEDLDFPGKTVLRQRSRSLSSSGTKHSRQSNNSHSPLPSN
# The entries are a selection whose mix differs from that of the whole data set. The source made the active and inactive calls.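 Rule for the calls: active = inhibition above the mean inhibition of all tested compounds plus 3 SD, set separately per screening campaign (cut at about 2.9% in these data); inactive = the rest.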
# Biological target: Eukaryotic translation initiation factor 2-alpha kinase 3 (Homo sapiens) (UniProt Q9NZJ5)
# Assay: block of dimerizer-induced PERK translation repression, primary screen, PERK inhibitor project, CHO PERK-DD cells, SEAP luminescence, HTS (AID 1416);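 note: PERK kinase domain activated by AP20187 dimerizer at 100 nM; 0% = DMSO with dimerizer and 100% = rapamycin at 8.4 µM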
# Settings: CHO PERK-DD fusion, SEAP luminescence translation reporter; at 5.6 µM; stronger effect = higher value
row,Structure (SMILES),inhibition
1,CP(=O)(OCCOc1ccccc1)OCCOc1ccccc1,inactive: 1.41%
2,COc1ccc(OP(C)(=O)Nc2ccc(SC(F)(F)F)cc2)cc1 (stereo not given),inactive: 0.07%
3,CCOC(=O)c1ccc(NP(C)(=O)Oc2ccc(F)cc2)cc1 (stereo not given),inactive: -0.75%
4,CCN(CC)CCCOC(=O)C(O)(c1ccccc1)C1CCCCC1 (stereo not given),inactive: -0.67%
5,CCCCCOc1ccc(NP(C)(=O)Oc2ccc(Cl)cc2Cl)cc1 (stereo not given),inactive: 1.15%
6,CP(=O)(Nc1ccccc1)Oc1ccc(F)cc1 (stereo not given),inactive: 1.07%
7,CC(C)c1ccc(OP(C)(=O)Nc2ccc(SC(F)(F)F)cc2)cc1 (stereo not given),inactive: 1.03%
8,CP(=O)(Nc1ccccc1F)Oc1ccccc1 (stereo not given),inactive: 0.98%
9,O=C(OCCN1CCN(CCOCc2ccccc2)CC1)C(O)(c1ccccc1)c1ccccc1,inactive: -0.36%
10,O=C(OC1CN2CCC1CC2)c1ccc([N+](=O)[O-])cc1 (stereo not given),inactive: 1.04%
11,CP(=O)(Nc1ccc(SC(F)(F)F)cc1)Oc1ccc(F)cc1 (stereo not given),inactive: 1.18%
12,CCOP(C)(=S)SCC(=O)NC(C)(CC)C(=O)O (stereo not given),inactive: 0.79%
13,CP(=O)(Nc1ccc2c(c1)OCCO2)Oc1ccccc1 (stereo not given),inactive: 0.3%
14,Cc1ccccc1NP(C)(=O)Nc1ccccc1C,inactive: 0.47%
15,COc1ccc(OP(C)(=O)Nc2cccc(Br)c2)cc1 (stereo not given),inactive: 1.22%
16,COc1ccc(NP(C)(=O)Oc2ccccc2OC)cc1 (stereo not given),inactive: -0.17%
17,CN(C)CCOC(=O)C(O)(c1ccccc1)C1CCCCC1 (stereo not given),inactive: 0.25%
18,O=[N+]([O-])c1cc([N+](=O)[O-])c(NCC2CCS(=O)(=O)C2)c([N+](=O)[O-])c1 (stereo not given),inactive: 0.84%
19,Cc1cc(-c2cccc3ccccc23)c(C)cn1.O=[N+]([O-])c1cc([N+](=O)[O-])c(O)c([N+](=O)[O-])c1,inactive: 2.09%
20,O=[N+]([O-])c1ccc(OP2(=O)COCCO2)cc1 (stereo not given),inactive: 0.5%
